The source of these data is patent US12065409B2, “Analogs of 2-pralidoxime as antidotes against organophosphorus nerve agents” (dated 2024).

The chains behind the UniProt entries cited, without tags or fusion partners. Where a name states a change or a piece, a line headed by the entry shows the natural chain unless it says otherwise.
UniProt P22303: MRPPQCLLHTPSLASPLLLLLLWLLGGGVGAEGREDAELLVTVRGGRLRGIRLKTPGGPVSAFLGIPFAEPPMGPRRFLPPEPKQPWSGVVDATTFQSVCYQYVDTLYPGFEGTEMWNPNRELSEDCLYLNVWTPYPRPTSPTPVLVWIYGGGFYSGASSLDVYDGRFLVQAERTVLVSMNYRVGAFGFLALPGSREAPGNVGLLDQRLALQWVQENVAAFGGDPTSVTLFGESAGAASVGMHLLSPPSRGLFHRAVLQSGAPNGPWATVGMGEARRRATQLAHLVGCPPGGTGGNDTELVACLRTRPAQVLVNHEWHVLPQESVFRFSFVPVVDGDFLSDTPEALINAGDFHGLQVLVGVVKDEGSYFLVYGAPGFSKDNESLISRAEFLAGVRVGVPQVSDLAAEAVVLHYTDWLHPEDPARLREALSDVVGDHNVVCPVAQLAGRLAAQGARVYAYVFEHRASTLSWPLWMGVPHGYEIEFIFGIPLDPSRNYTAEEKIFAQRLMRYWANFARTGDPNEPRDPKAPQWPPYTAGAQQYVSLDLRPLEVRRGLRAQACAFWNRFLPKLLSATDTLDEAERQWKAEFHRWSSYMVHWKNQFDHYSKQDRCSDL
UniProt O42275: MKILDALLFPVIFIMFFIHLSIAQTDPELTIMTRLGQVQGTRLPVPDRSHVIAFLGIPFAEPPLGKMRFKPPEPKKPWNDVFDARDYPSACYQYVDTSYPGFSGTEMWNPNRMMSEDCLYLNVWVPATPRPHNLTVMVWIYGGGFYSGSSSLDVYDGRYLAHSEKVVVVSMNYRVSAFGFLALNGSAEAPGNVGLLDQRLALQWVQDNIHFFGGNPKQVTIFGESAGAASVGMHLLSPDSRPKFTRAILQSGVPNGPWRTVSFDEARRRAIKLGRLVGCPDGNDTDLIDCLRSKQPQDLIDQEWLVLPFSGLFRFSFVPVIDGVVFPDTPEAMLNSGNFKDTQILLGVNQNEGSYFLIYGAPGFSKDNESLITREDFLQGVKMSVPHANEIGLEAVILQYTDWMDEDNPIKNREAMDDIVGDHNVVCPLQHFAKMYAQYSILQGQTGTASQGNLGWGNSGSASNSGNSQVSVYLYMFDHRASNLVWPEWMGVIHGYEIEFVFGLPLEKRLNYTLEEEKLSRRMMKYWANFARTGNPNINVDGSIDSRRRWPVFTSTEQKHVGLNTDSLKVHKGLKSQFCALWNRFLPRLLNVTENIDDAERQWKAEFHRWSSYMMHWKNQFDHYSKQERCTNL

pEC50: −log10 of the molar value. Several values for one entry are separate records, joined by “and”; a condition that tells them apart may be missing. Equal values may be shown once. Read-outs that look alike come from different tables or passages of the source.

For series [1] the following is noted: brain vs blood plasma; cited from earlier work.
The target of series [2] is human AChE (Homo sapiens, UniProt P22303). In words: Ellman's assay: reactivation of paraoxon-ethyl-inhibited human AChE. To be noted: read-out: EC50, normalized AChE activity (reactivation); 10 U/mL human AChE, 20 μM paraoxon-ethyl, 0-600 μM reactivator, pH 7.4; mean±SEM.
Series [3] has as its target Electrophorus electricus (electric eel) AChE (Electrophorus electricus, UniProt O42275). As to the kind of experiment: Ellman's assay: reactivation of paraoxon-inhibited electric eel AChE. Particulars: read-out: EC50, AChE activity (reactivation), 10 U/mL eel AChE, mean±SEM.

Regarding 2-pralidoxime, the “concentration within the brain as % of the blood plasma level” value in series [1] is 4-10%. In addition, the pEC50 was 4.52 in series [2]; 4.80 in series [3] (20 μM paraoxon-ethyl, at 20 minutes, pH 7.4); 4.77 in series [3] (20 μM paraoxon-ethyl, at 25 minutes, 1:1:88:10 isopropanol:DMSO:phosphate:Tris pH 7.4); 4.80 in series [3] (20 μM paraoxon-ethyl, at 25 minutes, 1:89:10 isopropanol:phosphate:Tris pH 7.4); 4.47 and 4.46 in series [3] (20 μM paraoxon-methyl, at 20 minutes, pH 7.4).
